Laboratory results as given in patent publication US10682371B2, “Small molecule conjugates specifically activated in tumor microenvironment for targeting and use thereof” (priority 2014, dated 2020).

What was measured:
asparagine endopeptidase = biological target: T1, asparagine endopeptidase (Homo sapiens, UniProt Q99538); conditions: S1-S6, 1 mg/ml; 10 μg/ml acidified asparagine endopeptidase; 37°
T1 sequence (Q99538 26-323 limits assumed): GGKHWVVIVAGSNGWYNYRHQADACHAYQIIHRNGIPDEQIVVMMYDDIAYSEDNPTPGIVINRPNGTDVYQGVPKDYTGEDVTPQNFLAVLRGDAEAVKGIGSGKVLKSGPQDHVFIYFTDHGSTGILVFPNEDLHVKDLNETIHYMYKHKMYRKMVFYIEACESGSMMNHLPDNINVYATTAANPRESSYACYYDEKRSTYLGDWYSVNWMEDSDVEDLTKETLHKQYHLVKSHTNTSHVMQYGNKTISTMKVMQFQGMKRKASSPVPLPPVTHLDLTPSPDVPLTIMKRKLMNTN
Method: Reduction of reactant and increase of product were detected by HPLC, thereby comparing the activation efficiency of these compounds.
When R1 is 2-(2-Methoxyethoxy)Acetyl, and R3 is Ala, activation study and efficacy study were carried out by using compounds having different cleavable linker. The study methods are identical to those in Examples 10, 11 and 12. The in vitro activation efficiency was tested by asparagine endopeptidase and the tumor inhibition rate was tested by using human breast cancer MDA-MB231 model.

D121 lung tumor cells = format: in vivo, C57 mice
Method: 1) D121 lung tumor cells were purchased from ATCC. Cells were cultivated in DMEM culture solution containing 10% fetal bovine serum at 37° C. and 5% CO2. The cells were passaged for every three days and cells within the 15th passage were used.
2) Tumor immunization. 5×10^5 D121 lung cancer cells (purchased from ATCC) which were killed by irradiation were intraperitoneally injected to mice. The mice were injected for 3 times, once every two weeks. After immunization, mice were injected with tumor cells and the drugs were administered weekly for 4 weeks.
3) Production of tumor. At day 32, 10^6 live lung tumor cells were subcutaneously injected to the back of the C57 mice immunized by tumor. Treatment began when the tumor grew to 0.3-0.4 cm.
2) Tumor immunization. 5×10^5 D121 lung cancer cells (purchased from ATCC) which were killed by irradiation were intraperitoneally injected to mice. The mice were injected for 3 times, once every two weeks. After immunization, mice were injected with tumor cells and the drugs were administered weekly for 4 weeks. In table 16 below the immune group was immuned with D121 lung tumor cells and the group without dead D121 lung tumor cells was injected with physiological saline as controls.
3) Production of tumor. After immunization (4 weeks later), 10^6 live lung tumor cells were subcutaneously injected to the back of the C57 mice immunized by tumor. Treatment began when the tumor grew to 0.3-0.4 cm. Tumor size (mm^3) were noted and tumor inhibition rates were calculated.
2) Tumor immunization. 5×10^5 D121 lung cancer cells (purchased from ATCC) which were killed by irradiation were intraperitoneally injected to mice. The mice were injected for 3 times, once every two weeks. After immunization, mice were injected with tumor cells and the drugs were administered weekly for 4 weeks. In the table below the immune group was immuned with D121 lung tumor cells and the group without dead D121 lung tumor cells was injected with physiological saline as controls.
3) Production of tumor. […]

[1] = D121 immunized C57 mice, 13.2 μmol/kg weekly, PDL1 antibody 5 μg/kg where combined, Day 18

**Q.** Which “Activation Efficiencies (%)” value (asparagine endopeptidase) does the source give for “4-N—(N—(N—(N-(2-(2-methoxyethoxy) acetyl-L-alanyl)-L-alanyl)-L-asparaginyl)-amino benzyl alcohol-camptothecin-carbonic acid diester [Compound S2]” here?
**A.** 87.5%

**Q.** And the “Inhibitory rate on tumor Day 18” value (D121 lung tumor cells; [1])?
**A.** 72.03

**Q.** What about the “Size of tumor (mm^3) Day 18” value (D121 lung tumor cells; [1]) of the same substance?
**A.** 379.67 ± 214.45 mm^3

**Q.** What about the “Treatment effects on C57 mice, in words” value (D121 lung tumor cells; compared to the control group and the other treatment groups) of the same substance?
**A.** greatly improved
